For orientation: inhibition means the relative decrease from the control value, in per cent.

We go through 79 molecules from PubChem BioAssay AID1285 (Columbia University Molecular Screening Center, 2008).

The structures appear in SMILES notation. Only a part is listed here, and it is no random draw. Activity calls are given as the source filed them.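 The calls were made as follows: active = inhibition above a set limit, derived from the sample mean plus 3 SD (cut at about 45% in these data); inconclusive = one replicate passes the limit while the other fails; inactive = the rest.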

The assay in a line: APP 5'UTR translational reporter suppression – APP 5'UTR luciferase, SH-SY5Y cells, primary screen (AID 1285). The settings on record: SH-SY5Y APP 5'UTR-luciferase reporter, luminescence; at 2 µM; active compounds read high.
`COc1ccc(C2=NCC(CBr)S2)cc1` (centres undefined): the inhibition is inactive: -10.2%.
As for `O=[N+]([O-])c1cccc2n[nH]nc12`, the inhibition is inactive: -5.5%.
The figure for `CC(=O)N1C2C3N(C(C)=O)C1C1N(C(C)=O)C(C(N1C(C)=O)N3C(C)=O)N2C(C)=O` is inactive: -8.8%; for `Cc1ccc(NP(=O)(Oc2ccccc2)Oc2ccccc2)nc1` it is inactive: -14.2%; for `CCc1nc2c(n1)c1c(non1O)c1c2no[n+]1[O-]` it is inactive: 3.7%.
For `O=[N+]([O-])c1cc([N+](=O)[O-])c(CCNc2ccccc2)c([N+](=O)[O-])c1`, the inhibition is inactive: 19.1%.
Next, `CCN(/C(=N/P(=O)(N1CCOCC1)N1CCOCC1)N1CCOCC1)c1ccc(OC)cc1`: inactive: 2.9%; `CN(C)C(=O)OCCc1n(C)cc[n+]1C`: inactive: -6.5%; `CC1CCN(C(=O)Oc2c(Cl)cc(Cl)c3cccnc23)CC1`: inactive: -6.6%.
In the case of `O=[N+]([O-])c1ncn(CCn2ncnc2[N+](=O)[O-])n1`, the inhibition is inactive: 20.7%.
With `Cc1cc(SC(NC(=O)c2ccc(F)cc2)C(Cl)(Cl)Cl)ncn1` (centres undefined), the inhibition was inactive: -5.6%.
The figure for `CCOP(=O)(Nc1ccccc1)OCC` is inactive: -4.3%; for `CCN(N=Nc1nonc1N)c1nonc1N` it is inactive: 4.2%; for `NC(=O)c1cc([N+](=O)[O-])cc([N+](=O)[O-])c1N` it is inactive: -9.6%.
Regarding `Cc1ccc(N/C(=N/P(=O)(N2CCOCC2)N2CCOCC2)N2CCOCC2)cc1`, the inhibition was inactive: 3.6%.
Consider `COc1ccccc1OP(=O)(Nc1ccc(C)cn1)Oc1ccccc1OC`, for which the inhibition is inactive: 7%.
`CN1CCCC(OC(=O)C(c2ccccc2)c2ccccc2)C1` (centres undefined): the inhibition is inactive: 8%.
Next, `Clc1ccc(Cl)c(NC2=NCC(CBr)S2)c1` (centres undefined): inactive: -4.4%; `CC(C)CC(=O)NC(Sc1ccc(Cl)cc1)C(Cl)(Cl)Cl` (centres undefined): inactive: -10.5%.
The figure for `Oc1ccccc1CNc1ccccn1` is inactive: -10%.
For `O=C(NC(Sc1ccncn1)C(Cl)(Cl)Cl)c1ccccc1` (centres undefined), the inhibition is inactive: -20.7%.
Next, `Cc1c2non([O-])c-2c(C)[n+](=O)[n+]1[O-]`: inactive: 2.5%.
The figure for `O=P1(Nc2nc3ccc(Cl)cc3s2)COc2ccccc2O1` (centres undefined) is inactive: -4.3%.
`CCOc1ccc(C2=NCC(CBr)S2)cc1` (centres undefined): the inhibition was inactive: 29.6%.
Regarding `CC(C)(C)C(=O)NC(Sc1ccccc1)C(Cl)(Cl)Cl` (centres undefined), the inhibition was inactive: 5.1%.
The figure for `CC(=O)Nc1ccc(Oc2c([N+](=O)[O-])cc([N+](=O)[O-])cc2[N+](=O)[O-])cc1` is inactive: -8%; for `CCNC(=S)/N=C(\N)N[N+](=O)[O-]` it is inactive: -5.4%; for `O=C(NC1CCS(=O)(=O)C1)NP(=S)(Oc1ccccc1)Oc1ccccc1` (centres undefined) it is inactive: 22.4%.
Consider `c1ccc(-c2nn[nH]n2)c(-c2nn[nH]n2)c1`, for which the inhibition is inactive: -22.6%.
Next, `CCOC(=O)NC(Sc1ccccc1)C(Cl)(Cl)Cl` (centres undefined): inactive: 8.9%; `COC(=O)c1cc2c(s1)N=C(c1ccccc1)N(C)P2(=O)N1CCOCC1` (centres undefined): inactive: 8.6%.
The figure for `Cc1ccc(OP(=O)(Nc2ccccn2)Oc2ccc(C)cc2)cc1` is inactive: -24.1%.
Next, `CC(=O)NC(SC(=S)N(CC(C)C)CC(C)C)C(Cl)(Cl)Cl` (centres undefined): inactive: -3.2%; `CCC(=O)N1C2C3N(C(=O)CC)C1C1N(C(=O)CC)C(C(N1C(=O)CC)N3C(=O)CC)N2C(=O)CC`: inactive: 0.9%; `O=c1c2cc([N+](=O)[O-])ccc2[nH]c2c([N+](=O)[O-])cc([N+](=O)[O-])cc12`: active: 80.5%.
`O=P(Nc1ccccn1)(c1ccc(Br)cc1)c1ccc(Br)cc1`: the inhibition was inactive: 11.7%.
Next, `CC(=O)NC(SC(=S)N(C)C)C(Cl)(Cl)Cl` (centres undefined): inactive: -0.6%.
Regarding `C(Cc1nn[nH]n1)Cc1nn[nH]n1`, the inhibition was inactive: -20.9%.
On to `O=C(OC1CN2CCC1CC2)c1cccc(Cl)c1` (centres undefined), for which the inhibition was inactive: -0.6%.
The figure for `CC(C)C(=O)NC(Sc1ccccc1)C(Cl)(Cl)Cl` (centres undefined) is inactive: -10.3%; for `O=P(Nc1nccs1)(c1ccccc1)c1ccccc1` it is inactive: -6.8%.
On to `c1nnnn1CCn1cnnn1`, for which the inhibition was inactive: -7.2%.
Consider `O=P1(Nc2ccccn2)COc2ccccc2OC1`, for which the inhibition was inactive: -13.5%.
Next, `Clc1n[nH]nc1-c1nn[nH][15n]1`: inactive: 2.4%.
Next, `CC1(CBr)Cn2c(nc3ccccc3c2=O)S1` (centres undefined): inactive: 15.4%.
As for `CC(C)/C=N\N=C(\N)N[N+](=O)[O-]`, the inhibition is inactive: 10.9%.
The figure for `CN(C(=O)Cc1ccc(Cl)c(Cl)c1)[C@@H]1CCCC[C@H]1N1CCCC1` is inactive: 1.7%; for `Cc1nn(-c2ccccc2)c2c1P(=O)(N1CCOCC1)N(C)C(c1ccccc1)=N2` (centres undefined) it is inactive: 1.5%; for `CC1CCC(C(C)C)C(OP(=O)(Nc2ccccn2)c2ccccc2)C1` (centres undefined) it is inactive: 11.1%.
The figure for `CN(C)C1(CNC(=O)c2ccc(S(C)(=O)=O)cc2)CCCCC1` is inactive: -13.6%; for `O=P1(Nc2ncccn2)COc2ccccc2OC1` it is inactive: 1.6%.
The figure for `Cc1ccc(OCC(=O)OC2CN3CCC2CC3)cc1` (centres undefined) is inactive: -7%; for `O=P1(Nc2ccc(Br)cn2)COc2ccccc2OC1` it is inactive: -10.9%; for `CCOP1(=S)c2c(C)nn(CCC#N)c2N=C(c2ccccc2F)N1C` (centres undefined) it is inactive: 1.7%.
On to `O=P(Nc1nccs1)(Oc1ccccc1)Oc1ccccc1`, for which the inhibition was inactive: -9%.
Consider `O=P(Nc1nccs1)(c1ccccc1)c1nc2ccccc2s1` (centres undefined), for which the inhibition was inactive: 26.1%.
The figure for `O=[N+]([O-])c1ccc2c(c1)nnn2O` is inactive: 3%; for `CCOP1(=S)c2c(C)nn(CCC#N)c2N=C(c2ccc(F)cc2)N1C` (centres undefined) it is inactive: -3.5%; for `COc1cc(C(=O)NCC2(N3CCOCC3)CCCCC2)cc(Cl)c1OC(C)C` it is inactive: -2.9%.
Next, `Cc1cccc(OCC(=O)OC2CN3CCC2CC3)c1` (centres undefined): inactive: -2.2%; `Cc1ccc(NCCc2c([N+](=O)[O-])cc([N+](=O)[O-])cc2[N+](=O)[O-])cc1`: inactive: 17.5%; `COc1cc(C2NCCC3(OCCO3)C2(C)C)cc(OC)c1OC` (centres undefined): inactive: 4.4%.
The figure for `CCOP(=O)(Nc1cccc2ccccc12)OCC` is inactive: -2.9%; for `O=C(OC1CN2CCC1CC2)C12CC3CC(CC(C3)C1)C2` (centres undefined) it is inactive: 7.5%.
Consider `Cc1cc(=O)[nH]c(N[N+](=O)[O-])n1`, for which the inhibition is inactive: -2.3%.
Next, `Cc1c2c(nc3ccccc13)SC(C(Cl)Cl)C2` (centres undefined): inactive: 10.2%; `COc1ccc2nc(NP(=O)(c3ccccc3)c3ccccc3)sc2c1`: inactive: -26.9%; `COc1ccc(N/C(=N/P(=O)(N2CCOCC2)N2CCOCC2)N2CCOCC2)cc1`: inactive: -9%.
The figure for `Cc1ccc2nc3c(c(C)c2c1)CC(C(Cl)Cl)S3` (centres undefined) is inactive: -21%; for `ClCCSc1nnc(-c2cccnc2)o1` it is inactive: -5.8%; for `CC(C)NC(=O)NP(=O)(Oc1ccccc1)Oc1ccccc1` it is inactive: -7.4%.
The figure for `CCN(CC)C(=S)SC(NC=O)C(Cl)(Cl)Cl` (centres undefined) is inactive: 1.1%; for `O=[N+]([O-])c1cc([N+](=O)[O-])c(-c2ccn[nH]2)s1` it is inactive: 7.8%; for `Cc1cc(SC(NC(=O)c2ccccc2)C(Cl)(Cl)Cl)nc(C(C)C)n1` (centres undefined) it is inactive: 7.4%.
As for `O=P(Nc1ccccn1)(c1cccc2ccccc12)c1cccc2ccccc12`, the inhibition was inactive: -14.7%.
The figure for `Cc1cc(SC(NC=O)C(Cl)(Cl)Cl)ncn1` (centres undefined) is inactive: -20.5%; for `COP1(=S)c2c(C)nn(CCC#N)c2N=C(c2ccc(F)cc2)N1C` (centres undefined) it is inactive: 19.2%; for `O=C(COc1ccccc1)OC1CN2CCC1CC2` (centres undefined) it is inactive: 7.1%.
On to `CCC(C)N(CC(C)C)C(=S)SC(NC(C)=O)C(Cl)(Cl)Cl` (centres undefined), for which the inhibition was inactive: -3.5%.
